# Apparent affinities of Ab-14 variants for a coronavirus HR2 peptide

From the AlphaSeq antibody data of Engelhart et al. 2022 (doi:10.1038/s41597-022-01779-4), copy in the FLAb collection.

Target peptide (SARS-CoV-2 spike, HR2 region): PDVDLGDISGINAS

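Variants in AAYL50 differ from the parent at up to three CDR positions; double and triple changes were sampled at random. The scFvs were displayed on barcoded MATa yeast, the peptide on MATalpha yeast. Binding brings cells together so that they mate, and sequencing counts the barcode pairs among the diploids. The ratio of observed to expected reads was calibrated, replicate by replicate, on BCL2-family standards whose Kd was known from biolayer interferometry. The assay was run in three technical replicates.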

Parent scFv Ab-14: VH joined to VL by a (GGGGS)3 linker. Changes lie in the light chain CDRs alone.
VH: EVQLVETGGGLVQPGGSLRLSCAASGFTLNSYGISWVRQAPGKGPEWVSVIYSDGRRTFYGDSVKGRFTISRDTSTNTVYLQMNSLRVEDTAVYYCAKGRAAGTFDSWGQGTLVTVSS
VL: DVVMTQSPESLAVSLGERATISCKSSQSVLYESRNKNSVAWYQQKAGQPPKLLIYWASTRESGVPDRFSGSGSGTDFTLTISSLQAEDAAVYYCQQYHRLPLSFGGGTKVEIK

Changes read parent residue, position, new residue, counted from the first residue of the VL shown.
Scale: log10 of Kd in nM, estimated from mating counts; low values are strong binders.
Where no diploid with the target was found in that replicate, the entry reads "n.d.": below detection, most likely a poor binder, though not proof of it.
Nonspecific signal, from three strains lacking the peptide, appeared in 18% of pairings of library AAYL50, centred on 4.19 (5% of these signals below 2.99); values are not corrected for it. The control count says in how many pairings with the empty strains this scFv gave a signal, with their mean in brackets.

| # | changes | log10 Kd, replicates | signal with controls |
|---|---|---|---|
| 1 | E32Y/R34W | 1.31 1.78 1.19 | 0 of 9 |
| 2 | V29M | 0.88 0.90 0.77 | 2 of 9 (4.26) |
| 3 | T59D/Y97E/L100N | 1.99 2.04 2.88 | 0 of 9 |
| 4 | K24P/S26Y | n.d. n.d. n.d. | 0 of 9 |
| 5 | L30V/R34K/N37A | 3.69 3.98 n.d. | 6 of 9 (4.27) |
| 6 | E61F/H98V/P101Q | 1.46 1.41 1.25 | 0 of 9 |
| 7 | N35K/Q96T/R99Y | n.d. n.d. 4.64 | 2 of 9 (4.19) |
| 8 | K36N/L100I | 3.13 1.85 1.91 | 1 of 9 (3.06) |
| 9 | N35V/S38C/A40C | n.d. 2.56 n.d. | 3 of 9 (3.36) |
| 10 | E61D/S62K/Q96C | 3.61 n.d. 4.03 | 0 of 9 |
| 11 | S26F/S38N/V39T | n.d. n.d. n.d. | 1 of 9 (3.51) |
| 12 | S28N/V29A/H98V | 1.00 1.09 1.36 | 4 of 9 (4.22) |
| 13 | V29Y/A57R/L100V | 4.04 n.d. n.d. | 2 of 9 (3.39) |
| 14 | K36C/V39C | n.d. n.d. n.d. | 0 of 9 |
| 15 | K24E/N37G/A40E | 5.93 4.51 6.33 | 6 of 9 (3.92) |
| 16 | S25D/A57I/Q95M | n.d. 2.61 n.d. | 2 of 9 (3.18) |
| 17 | K24E/E32P/R99N | 3.76 2.83 3.65 | 3 of 9 (3.61) |
| 18 | K36W/A57S/Q96M | 2.47 n.d. 2.26 | 0 of 9 |
| 19 | S33A/K36A/Q95T | 1.56 1.78 1.66 | 2 of 9 (4.48) |
| 20 | Y31L/K36A/S103P | n.d. n.d. n.d. | 0 of 9 |
| 21 | S33A/Y97D/P101R | 1.46 1.65 2.08 | 0 of 9 |
| 22 | K36I/S38N/Y97R | 1.96 1.42 2.12 | 2 of 9 (3.84) |
| 23 | V29M/S62I/Y97W | n.d. 3.81 5.61 | 2 of 9 (4.45) |
| 24 | N37D/S38H/S103L | 1.90 1.98 2.26 | 5 of 9 (4.76) |
| 25 | Q27A/R34I/T59A | 1.37 1.68 1.22 | 0 of 9 |
| 26 | L30S/S62H/Y97A | n.d. n.d. n.d. | 2 of 9 (4.12) |
| 27 | S58W/R60I/L100A | n.d. 3.51 n.d. | 0 of 9 |
| 28 | N35R/N37Q | 2.91 n.d. 2.84 | 0 of 9 |
| 29 | Y31N/E32G/T59F | 1.25 1.22 1.32 | 0 of 9 |
| 30 | E61L/L100D/L102E | 4.67 4.77 4.55 | 5 of 9 (4.67) |
| 31 | Y31Q/R34K/E61D | 0.82 0.66 0.78 | 2 of 9 (3.74) |
| 32 | N35Q/K36I/A57T | 1.14 1.23 1.10 | 6 of 9 (4.49) |
| 33 | S38C/E61R/L102N | n.d. n.d. n.d. | 0 of 9 |

For reference, 5 entries of the list once more:

| changes | log10 Kd, replicates | signal with controls |
|---|---|---|
| S26F/S38N/V39T | n.d. n.d. n.d. | 1 of 9 (3.51) |
| K36N/L100I | 3.13 1.85 1.91 | 1 of 9 (3.06) |
| E61F/H98V/P101Q | 1.46 1.41 1.25 | 0 of 9 |
| Y31N/E32G/T59F | 1.25 1.22 1.32 | 0 of 9 |
| K24E/N37G/A40E | 5.93 4.51 6.33 | 6 of 9 (3.92) |